The results in this text go back to patent US8557859B2, “Immunomodulatory compositions” (Summit (Wales) Limited, priority 2003, dated 2013).

In this experiment the test system is β-D-galactosidase. Description: Glycosidase inhibition, β-D-galactosidase. The class given is biochemical, Bovine liver. The settings on record: 1 mg/ml; second galactosidase line. The method, then: All enzymes were purchased from Sigma, as were the appropriate p-nitrophenyl substrates. Assays were carried out in microtitre plates. Enzymes were assayed in 0.1 M citric acid/0.2M di-sodium hydrogen phosphate (McIlvaine) buffers at the optimum pH for the enzyme. All assays were carried out at 20° C. For screening assays the incubation assay consisted of 10 μl of enzyme solution, 10 μl of inhibitor solution (made up in water) and 50 μl of the appropriate 5 mM p-nitrophenyl substrate (3.57 mM final conc.) made up in McIlvaine buffer at the optimum pH for the enzyme.
The reactions were stopped with 0.4M glycine (pH 10.4) during the exponential phase of the reaction, which was determined at the beginning of the assay using blanks with water, which were incubated for a range of time periods to measure the reaction rate using 5 mM substrate solution. Endpoint absorbances were read at 405 nm with a Biorad microtitre plate reader (Benchmark). Water was substituted for the inhibitors in the blanks.
Turning to `OC[C@H]1[C@@H](O)[C@H](O)[C@H]2[C@@H](O)[C@@H](O)CN21` [3,7-diepi-casuarine (10), (1R,2R,3S,6S,7R,7aR)-3-(Hydroxymethyl)-1,2,6,7-tetrahydroxypyrrolizidine], the “% inhibition galactosidase” value worked out at 24%. With `OC[C@@H]1[C@@H](O)[C@H](O)[C@H]2[C@@H](O)[C@@H](O)CN21` [7-epi-casuarine (11), 7-epi-casuarine], the “% inhibition galactosidase” value stood at 35%. With `OC[C@H]1[C@@H](O)[C@H](O)[C@@H]2[C@@H](O)[C@@H](O)CN21` [Compound 22, 3,7,7a-triepi-casuarine], the “% inhibition galactosidase” value came out at 52%.
